PubChem BioAssay AID640 (Columbia University Molecular Screening Center, 2007)
The list shows a part of the results, in another mix than the full data. The source made the active and inactive calls.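 The calls were made as follows: active = inhibition at 2 µM at or above a set limit, the screen mean plus 3 SD (cut at about 24% in these data); inactive = the rest.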

Amino acid sequences for entries named in this document (tags omitted).
UniProt Q9Y2R2, whole entry, looked up: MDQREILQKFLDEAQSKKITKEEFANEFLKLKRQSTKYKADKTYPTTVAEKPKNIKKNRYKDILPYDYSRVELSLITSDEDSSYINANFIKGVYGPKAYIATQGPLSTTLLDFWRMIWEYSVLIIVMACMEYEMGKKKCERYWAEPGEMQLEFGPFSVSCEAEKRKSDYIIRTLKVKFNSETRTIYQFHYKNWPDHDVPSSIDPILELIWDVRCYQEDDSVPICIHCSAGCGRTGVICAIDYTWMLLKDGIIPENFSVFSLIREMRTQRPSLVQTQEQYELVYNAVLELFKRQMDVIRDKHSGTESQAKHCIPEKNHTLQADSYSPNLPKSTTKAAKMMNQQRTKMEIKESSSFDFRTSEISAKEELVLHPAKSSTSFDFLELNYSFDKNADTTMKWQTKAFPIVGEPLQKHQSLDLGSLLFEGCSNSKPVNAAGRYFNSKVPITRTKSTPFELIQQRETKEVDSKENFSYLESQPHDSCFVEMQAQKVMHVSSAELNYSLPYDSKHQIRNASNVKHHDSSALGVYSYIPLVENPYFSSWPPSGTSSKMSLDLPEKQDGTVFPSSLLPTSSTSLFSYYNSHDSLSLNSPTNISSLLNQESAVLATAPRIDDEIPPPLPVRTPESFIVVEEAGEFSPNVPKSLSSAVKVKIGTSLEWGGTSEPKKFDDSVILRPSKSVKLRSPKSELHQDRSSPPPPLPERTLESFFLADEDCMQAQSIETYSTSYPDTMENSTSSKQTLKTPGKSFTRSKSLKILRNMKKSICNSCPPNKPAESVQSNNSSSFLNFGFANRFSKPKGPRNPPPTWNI

Each compound was assayed against Tyrosine-protein phosphatase non-receptor type 22 (Homo sapiens) (UniProt Q9Y2R2) (assay: PTPN22 phosphatase inhibitors, primary screen, biochemical, DiFMUP fluorescence, 2 µM (AID 640;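 also: 0% = DMSO with enzyme and 100% = enzyme fully blocked by orthovanadate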)). Conditions: recombinant LYP catalytic domain, at 2 µM, hits give high values.

SMILES	inhibition
CC1(CBr)Cn2c(nc3ccccc3c2=O)S1 (stereo not drawn)	inactive: -4.6%
Clc1n[nH]nc1-c1nn[nH][15n]1	inactive: 3.2%
O=P1(Nc2ccccn2)COc2ccccc2OC1	inactive: -2.3%
Cc1ccc(OCC(=O)OC2CN3CCC2CC3)cc1 (stereo not drawn)	inactive: -3.6%
O=P1(Nc2ccc(Br)cn2)COc2ccccc2OC1	inactive: -8.4%
O=P1(Nc2ncccn2)COc2ccccc2OC1	inactive: 8%
Cc1nn(-c2ccccc2)c2c1P(=O)(N1CCOCC1)N(C)C(c1ccccc1)=N2 (stereo not drawn)	inactive: -7%
O=[N+]([O-])c1ccc2c(c1)nnn2O	inactive: -0.7%
CCOP1(=S)c2c(C)nn(CCC#N)c2N=C(c2ccc(F)cc2)N1C (stereo not drawn)	inactive: 4.2%
CCOP1(=S)c2c(C)nn(CCC#N)c2N=C(c2ccccc2F)N1C (stereo not drawn)	inactive: 4.3%
Cc1cccc(OCC(=O)OC2CN3CCC2CC3)c1 (stereo not drawn)	inactive: -1.5%
O=C(OC1CN2CCC1CC2)C12CC3CC(CC(C3)C1)C2 (stereo not drawn)	inactive: 8.5%
CCN(CC)C(=S)SC(NC=O)C(Cl)(Cl)Cl (stereo not drawn)	inactive: -1.2%
ClCCSc1nnc(-c2cccnc2)o1	inactive: -5.6%
CCC(C)N(CC(C)C)C(=S)SC(NC(C)=O)C(Cl)(Cl)Cl (stereo not drawn)	inactive: -5.4%
O=C(COc1ccccc1)OC1CN2CCC1CC2 (stereo not drawn)	inactive: 0.7%
COP1(=S)c2c(C)nn(CCC#N)c2N=C(c2ccc(F)cc2)N1C (stereo not drawn)	inactive: -3.2%

SMILES	inhibition
CC1CCN(C(=O)Oc2c(Cl)cc(Cl)c3cccnc23)CC1	inactive: 5.2%
O=[N+]([O-])c1cccc2n[nH]nc12	inactive: -3.1%
CC(=O)N1C2C3N(C(C)=O)C1C1N(C(C)=O)C(C(N1C(C)=O)N3C(C)=O)N2C(C)=O	inactive: 3.4%
CCc1nc2c(n1)c1c(non1O)c1c2no[n+]1[O-]	inactive: -11.1%
CCOP(=O)(Nc1ccccc1)OCC	inactive: 5.4%
CC(C)CC(=O)NC(Sc1ccc(Cl)cc1)C(Cl)(Cl)Cl (stereo not drawn)	inactive: -3.2%
Cc1c2non([O-])c-2c(C)[n+](=O)[n+]1[O-]	inactive: -21%
Oc1ccccc1CNc1ccccn1	inactive: 11.9%
CN1CCCC(OC(=O)C(c2ccccc2)c2ccccc2)C1 (stereo not drawn)	inactive: -14.3%
O=P1(Nc2nc3ccc(Cl)cc3s2)COc2ccccc2O1 (stereo not drawn)	inactive: -12.1%
COC(=O)c1cc2c(s1)N=C(c1ccccc1)N(C)P2(=O)N1CCOCC1 (stereo not drawn)	inactive: -1%
CCC(=O)N1C2C3N(C(=O)CC)C1C1N(C(=O)CC)C(C(N1C(=O)CC)N3C(=O)CC)N2C(=O)CC	inactive: -11.3%
CCOC(=O)NC(Sc1ccccc1)C(Cl)(Cl)Cl (stereo not drawn)	inactive: 8.2%
O=C(OC1CN2CCC1CC2)c1cccc(Cl)c1 (stereo not drawn)	inactive: -12.1%
c1nnnn1CCn1cnnn1	inactive: -9.6%
O=P(Nc1nccs1)(c1ccccc1)c1ccccc1	inactive: -6.5%
